Tested on: GFP-Fnip1 degron reporter
Assay: GFP-Fnip1 degron reporter (GFP/mCherry) by flow cytometry
Type: cell-based
Settings: GFP/mCherry ratio by FACS

Substance: α-ketoglutarate
- stability of GFP^degron reporter: stabilized GFP^degron

From patent US20230148299A1, “FEM1B PROTEIN BINDING AGENTS AND USES THEREOF” (The Regents Of The University Of California, priority 2020, published 2023)
